The values below come from BindingDB's records for doi:10.1016/0014-2999(86)90335-3 (Janssen Pharmaceutica, 1986).

The structures appear in SMILES notation. pKi: −log10 of the molar value.

This experiment has as its target T1, Alpha-1A adrenergic receptor (Rattus norvegicus, UniProt P43140).
T1 sequence (P43140 whole entry): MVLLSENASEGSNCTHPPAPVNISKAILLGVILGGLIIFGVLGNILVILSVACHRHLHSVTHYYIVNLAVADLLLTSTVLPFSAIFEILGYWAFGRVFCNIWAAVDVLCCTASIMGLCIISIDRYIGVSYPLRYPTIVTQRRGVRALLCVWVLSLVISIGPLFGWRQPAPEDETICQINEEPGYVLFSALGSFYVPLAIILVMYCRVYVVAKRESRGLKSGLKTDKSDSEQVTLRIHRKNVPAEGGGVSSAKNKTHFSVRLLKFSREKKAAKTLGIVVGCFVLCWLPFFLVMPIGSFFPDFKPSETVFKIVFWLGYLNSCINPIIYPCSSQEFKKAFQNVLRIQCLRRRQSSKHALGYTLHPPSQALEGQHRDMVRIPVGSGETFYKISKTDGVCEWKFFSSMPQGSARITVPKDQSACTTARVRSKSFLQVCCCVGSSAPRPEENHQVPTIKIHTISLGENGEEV

For `COC(=O)[C@@H]1[C@H]2C[C@H]3c4[nH]c5ccccc5c4CCN3C[C@@H]2CC[C@@H]1O` [yohimbic acid methyl ester], the pKi (usually −log10 of the Ki, conventionally taken in molar units) was 5.96.
